Biological target: IKZF2 (Homo sapiens, UniProt Q96SW2+Q9UKS7)
Test: MOLT4 IKZF2 HiBit assay
Details: MOLT4 IKZF2 HiBit cells, tested form: formate
Description: MOLT4 IKZF2 HiBit Assay Protocol:
This protocol used MOLT4 cells that were engineered using CRISPR/Cas9-mediated genomic insertion of HiBit, tagged to the N terminus of the IKZF2 coding sequence. Day 1. A 10-point dose response was created starting from 30 μM down to InM using a Tecan D300e. Next was added 8,000 cells/well of the MOLT4 IKZF2 HiBit cells to the compound plate. The compounds plate was incubated for 6 hours. Day 2. Nano-Glo HiBit Lytic Buffer/Nano-Glo HiBit Lytic substrate/LgBit Protein mix was added to each well and the compound plate was incubated for 15 minutes. Finally, luminescence signal was read using a BMG Labtech PHERAstar FSX. Data was normalized to DMSO and graphed using GraphPad Prism to determine the concentration points at which 50% of HiBiT-Helios degradation was achieved by each compound. The extent of degradation (range of luminescence) from the highest to lowest concentration points was calculated to determine Dmax.

Protein sequences, listed by entry. Tags and fused reporters are not part of them.
UniProt Q96SW2, whole entry: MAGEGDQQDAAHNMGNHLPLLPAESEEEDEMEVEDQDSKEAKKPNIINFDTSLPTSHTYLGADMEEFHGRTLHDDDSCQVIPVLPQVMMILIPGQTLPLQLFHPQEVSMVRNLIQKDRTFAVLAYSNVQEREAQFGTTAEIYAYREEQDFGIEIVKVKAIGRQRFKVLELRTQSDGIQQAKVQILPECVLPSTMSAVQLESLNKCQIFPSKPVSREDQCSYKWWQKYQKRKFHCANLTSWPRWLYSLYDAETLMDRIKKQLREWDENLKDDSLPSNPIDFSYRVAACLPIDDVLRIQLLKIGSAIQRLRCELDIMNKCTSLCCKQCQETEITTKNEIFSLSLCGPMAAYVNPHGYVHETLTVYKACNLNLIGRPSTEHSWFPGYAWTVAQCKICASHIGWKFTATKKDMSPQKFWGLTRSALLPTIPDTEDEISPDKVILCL
UniProt Q9UKS7, whole entry: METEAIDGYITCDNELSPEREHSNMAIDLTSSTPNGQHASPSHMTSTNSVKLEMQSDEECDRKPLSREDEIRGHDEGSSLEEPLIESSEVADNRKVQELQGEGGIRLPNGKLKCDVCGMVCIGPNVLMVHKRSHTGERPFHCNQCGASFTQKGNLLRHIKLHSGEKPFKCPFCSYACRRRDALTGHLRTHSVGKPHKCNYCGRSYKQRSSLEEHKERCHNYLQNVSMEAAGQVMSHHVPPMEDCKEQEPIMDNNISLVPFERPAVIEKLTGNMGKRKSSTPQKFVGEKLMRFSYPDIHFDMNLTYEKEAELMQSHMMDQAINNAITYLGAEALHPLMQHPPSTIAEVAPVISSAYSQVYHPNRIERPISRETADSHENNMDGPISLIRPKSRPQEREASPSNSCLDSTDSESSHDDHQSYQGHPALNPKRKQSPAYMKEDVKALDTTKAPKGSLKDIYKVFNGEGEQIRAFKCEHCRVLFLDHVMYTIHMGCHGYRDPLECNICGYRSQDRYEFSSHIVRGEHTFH
UniProt Q16531, whole entry partner: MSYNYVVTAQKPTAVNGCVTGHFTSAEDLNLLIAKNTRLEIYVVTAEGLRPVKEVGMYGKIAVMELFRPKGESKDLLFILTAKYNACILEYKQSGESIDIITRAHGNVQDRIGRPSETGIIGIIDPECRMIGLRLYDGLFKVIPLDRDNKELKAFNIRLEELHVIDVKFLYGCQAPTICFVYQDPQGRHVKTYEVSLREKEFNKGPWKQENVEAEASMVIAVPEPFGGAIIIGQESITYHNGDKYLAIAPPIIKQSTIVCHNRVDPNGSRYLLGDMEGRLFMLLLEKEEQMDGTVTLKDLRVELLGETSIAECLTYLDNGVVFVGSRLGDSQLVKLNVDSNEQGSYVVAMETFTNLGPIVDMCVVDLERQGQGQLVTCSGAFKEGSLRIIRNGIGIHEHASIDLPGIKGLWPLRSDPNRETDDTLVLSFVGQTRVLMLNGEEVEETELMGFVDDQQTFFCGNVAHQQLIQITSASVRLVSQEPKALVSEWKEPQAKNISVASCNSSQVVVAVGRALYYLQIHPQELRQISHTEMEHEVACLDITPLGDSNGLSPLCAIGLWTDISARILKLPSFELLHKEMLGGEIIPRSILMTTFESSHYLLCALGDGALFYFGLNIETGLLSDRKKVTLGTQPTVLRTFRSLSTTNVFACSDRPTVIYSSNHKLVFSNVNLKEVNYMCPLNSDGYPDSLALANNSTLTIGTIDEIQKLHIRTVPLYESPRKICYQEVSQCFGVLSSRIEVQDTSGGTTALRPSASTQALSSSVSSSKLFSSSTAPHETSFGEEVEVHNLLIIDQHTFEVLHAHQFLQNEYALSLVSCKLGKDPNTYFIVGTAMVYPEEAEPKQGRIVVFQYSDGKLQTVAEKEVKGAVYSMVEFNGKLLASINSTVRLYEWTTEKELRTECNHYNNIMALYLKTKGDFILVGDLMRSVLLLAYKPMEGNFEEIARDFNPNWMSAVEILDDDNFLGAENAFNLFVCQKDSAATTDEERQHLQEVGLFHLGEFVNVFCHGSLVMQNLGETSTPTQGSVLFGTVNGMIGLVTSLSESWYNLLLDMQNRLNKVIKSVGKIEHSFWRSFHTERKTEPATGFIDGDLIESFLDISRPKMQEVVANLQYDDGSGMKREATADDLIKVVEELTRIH

CCn1cc(CN2CCC(O)(c3ccc4c(c3)C(=O)N(C3CCC(=O)NC3=O)C4=O)CC2)cn1 (centres unmarked)
% reduction of IKZF2 @ 30 μM (6 hr) (30 μM, 6 hr (Dmax)): 64%
DC50 (read-out: IKZF2 DC50, 6 hours incubation, 10-point dose response from 30 μM): 136 nM
